Ab-14 light chain CDR variants: yeast mating affinities

Data: MIT Lincoln Laboratory AlphaSeq set, Li et al. 2023, doi:10.1038/s41467-023-39022-2, as distributed in FLAb.

Binding partner: SARS-CoV-2 spike HR2 peptide, sequence PDVDLGDISGINAS.

Each scFv is VH, a (GGGGS)3 linker, VL, as in the parent Ab-14, and differs from it in the CDRs of the light chain only.
VH: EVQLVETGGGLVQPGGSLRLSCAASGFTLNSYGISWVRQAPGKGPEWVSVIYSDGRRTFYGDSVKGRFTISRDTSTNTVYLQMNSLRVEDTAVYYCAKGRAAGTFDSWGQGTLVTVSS
VL: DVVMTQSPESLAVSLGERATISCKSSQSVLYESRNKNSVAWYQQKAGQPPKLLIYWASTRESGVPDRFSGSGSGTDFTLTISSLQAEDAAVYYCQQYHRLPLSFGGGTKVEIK

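The parent was found by panning a naive human phage display library on the peptide. These sequences belong to a second round, designed from the earlier measurements on random variants of the parent. Group labels follow the data file (Ctrl: baseline library sampled from a position-specific scoring matrix, with some repeated check sequences; Rand: our label for a block that the file lists under HC and that is probably the random mutants of the ten best first-round binders; GP: Gaussian process model; GPLM: also part of the Gaussian process libraries; HC: hill climbing; Gen: genetic algorithm; Gibbs: Gibbs sampling; a sequence that several methods proposed may carry one label only). The assay is AlphaSeq: two haploid yeast populations carry antibody and antigen on their surface. After mating in shaken culture at 30 °C for 16 h, diploids were selected and their barcode pairs sequenced. A regression on co-assayed BCL2-family reference pairs converts the normalised counts of each replicate to an apparent Kd. Mating was done six times.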

The parent's light chain CDRs are KSSQSVLYESRNKNSVA, WASTRES, QQYHRLPLS; each variant's own CDRs replace them letter for letter.
Variants here have at most six changes.
Numbers give log10(Kd / nM), so 0 is 1 nM and 3 is 1 µM. Smaller is tighter.
Replicates are averaged; those with no signal do not enter the mean.
An entry "not detected" has no value in the source: the pair was not observed among the diploids in any replicate. This suggests poor binding but is not conclusive.
In the paper, a design with two or fewer of six values counts as a poor binder.

| CDR-L1 | CDR-L2 | CDR-L3 | group | log10 Kd (nM), mean | detected |
|---|---|---|---|---|---|
| KSSQSWLYERRNKNSVG | GASTRES | QQYHRLPLS | Rand | 1.65 | 5/6 |
| KLRQSTLYESRNKNSVA | WASTREE | QQYHRLPLS | GP_HC | 0.54 | 6/6 |
| KSSQSVLYESRNVNSVA | WASQREQ | QQYHVLPLS | Ctrl | 1.24 | 1/6 |
| KWSQSVLYESRNKNSVA | DASTRES | QQYHRLPLS | Ctrl | -0.30 | 6/6 |
| KYSFSELYESRNKNSVA | EASCREE | QQYHRLPLS | GP_Gibbs | 0.67 | 6/6 |
| KSSKSTLYESRNKNSVA | NASTRES | QQYHRLPLS | GP_HC | 2.00 | 6/6 |
| KCAQWVDYGSRNKNSVA | DASTRES | QQYHRLPLS | GP_Gibbs | 0.18 | 6/6 |
| KSSQSVYYESRNTNSVA | WASTRES | QQYHRLPLS | Ctrl | 1.49 | 5/6 |
| KLSQQVLYESRNKNSVA | NASTRED | QQYHRLPLS | GP_Gen | -0.18 | 6/6 |
| KLSQSVLYEERMKNSVA | NASQRES | QQYHRLPLS | GP_Gen | 0.21 | 6/6 |
| KSSQSVLYESYNKNSVA | WASTRES | QQYHRLPLS | Ctrl | 2.30 | 4/6 |
| KTSQEKLYESRNKNSVA | DASTRES | QQYHRLPLS | GP_HC | -0.21 | 6/6 |
| KMSQGVLYESRNKNSVA | GASTRES | QQYHRLPLS | GP_HC | -0.20 | 6/6 |
| KVLQSVMYEGRNKNSVA | HASTRED | QQYHRLPLS | GP_HC | 0.74 | 6/6 |
| KSSQSVLYYSRNKNSVA | AASVRES | QQYHRLPLS | Ctrl | 0.92 | 6/6 |
| KSSQSVLRESRTKNSVA | YASERES | QQYHRLPLS | Ctrl | 1.34 | 4/6 |
| KLSQSEPYESRNKNSVA | NASTRCS | QQYHRLPLS | GP_Gen | -0.10 | 6/6 |
| KYYPSDLYESRNKNSVA | QASTRES | QQYHLLPLS | GP_HC | 0.91 | 6/6 |
| KSPQSVPYESRNKNSVA | NASTRES | QQYHRLPLS | GP_Gen | 0.26 | 6/6 |
| KSSQSVGYESDNTNSVA | WNSTRES | QQYHRLPLS | Ctrl | not detected | 0/6 |
| KLSQLVLYESRNKNSVA | GASTRES | QQYHRLPLS | GP_Gen | -0.33 | 6/6 |
| KSGQSVLYESRNKNSVA | NASTRES | QQYHRLPLS | Ctrl | 1.70 | 4/6 |
| KVSQSFLYESRNKNSVA | EASTRES | QDYHRLPLS | GP_Gen | -0.04 | 6/6 |
| KISQSWLYESRNKNSVA | NASTRMS | QQYHRLPLS | GP_Gen | -0.38 | 6/6 |
| KSSQSVLYESNNKNSVA | WASTREA | QQPHRLPLD | Ctrl | not detected | 0/6 |
| KSSGSVLAESRNKNSVA | WASTRES | QQYHRLPLS | Ctrl | 2.03 | 6/6 |
| KLSQSELYESRNKNSVA | EASQRLS | QQYHRLPLS | GP_Gen | 0.05 | 6/6 |
| KLEQSDEYESRNKNSVA | NASTRES | QQYHRLPLS | GP_Gen | -0.47 | 6/6 |
| KLRQSTLYESRNKNSVA | WASTRLS | QQYHRLPLS | Rand | 0.50 | 6/6 |
| KLSQSVGGESRNPNSVA | HASTRER | QQYHRLPLS | GP_Gibbs | 0.24 | 6/6 |
| KLQQSCLYESRNKNSVA | NASTRLS | QQYHRLPLS | GP_Gen | -0.11 | 6/6 |
| KLPQSVLYESRNKNSVA | HASTRED | KQYHRLPLS | GP_HC | -0.13 | 6/6 |
| KSSQSVLYESRNKNSVA | WASHRES | PQYHRLPLS | Ctrl | not detected | 0/6 |
| KLEQSWGYESRNKNSVA | NASTRES | QQYHRLPLS | GP_Gen | -0.34 | 6/6 |
| KLRQSTLYESSNKNSVA | WASTREN | QWYHRLPLS | Rand | not detected | 0/6 |
| KVPQSELYESRNKNSVA | EASTRES | QQYHRLPLS | GP_Gen | 0.00 | 6/6 |
| KFSQSEAYESRTKNSVA | NASTRES | QQYHRLPLS | GP_HC | 0.31 | 6/6 |
| KLSQSWLYESRNKNSVA | EASTRES | QAYHRLPLS | GP_Gen | 0.34 | 6/6 |
| KSSQSVLYEQRNVNSVA | WASNRES | QQYHRLPLS | Ctrl | not detected | 0/6 |
| KLSQSQLYESRNKNNVA | SASTREM | QQYHRLPLS | GP_Gibbs | -0.12 | 6/6 |
| KLSMSVLYESRNKNSVA | GASTRES | QQYHRLPLS | GP_Gen | -0.39 | 6/6 |
| KVSISYLLESRNKNSVA | EAETRES | QQYHRLPLS | GP_HC | 0.17 | 6/6 |
| KLEQSTLYESRNKNSVA | NASTRES | QQYHRLPLS | GP_Gen | -0.12 | 6/6 |
| KLSQSVLYESRNKNSVA | QASTRLS | QQYHRLPLS | GP_Gen | 0.06 | 6/6 |
| KSSQSVLMESRNKNSVA | WASVRES | QQYHRLPLS | Ctrl | 1.53 | 6/6 |
| KLSQSFLYESRNKNNVA | HASTRES | QQYHRLPLS | GP_Gen | -0.62 | 6/6 |
| KLSQSELYESRNKNSVA | NASTRLD | QQYHRLPLS | GP_Gen | 0.09 | 6/6 |
| KSSQSVLYESRNKNSVA | EASTRWS | QQYHRLPLS | Ctrl | 1.29 | 6/6 |
| KISQSWLMESRNKNSVA | EASTRQS | QQYHRLPLS | GP_HC | -0.14 | 6/6 |
| ASSQSWLYESRNKNSVA | GASTRES | QQYHRLPLS | GP_HC | -0.63 | 6/6 |
| KLEQSWLYESRNKNSVA | EASTRES | QQYHRLPLS | GP_Gen | -0.36 | 6/6 |
| KSSQSILYESVNKNSVA | NASTRES | QQYHRLPLS | GPLM_HC | 0.49 | 6/6 |
| KSSQSVLYESQNKNQVA | WASTLES | QQYHVLPLS | Ctrl | not detected | 0/6 |
| KSSQSVRYESGNKRSVA | WASWRES | QQYGRLPLS | Ctrl | not detected | 0/6 |
| KLSQSVLVESRNKNSVA | NASTRES | QQYHRLPLS | GP_Gen | -0.14 | 6/6 |
| KILQSVTYQSPNKNSVA | HASTRES | QQYHRLPLS | Ctrl | 0.19 | 6/6 |
| KLSQSVLYESRNKNSVA | QASTRES | QWYHRLPLD | Ctrl | not detected | 0/6 |
| KLSQSVLYEDRNKNNVA | SASTRES | QQYHRLPLS | GP_Gen | -0.68 | 6/6 |
| KLMQSVWYESRNKNSVA | EASTRES | QQYHRLPLS | GP_Gen | -0.25 | 6/6 |
| MSSQSVLWESPNKNSVA | WGSTRAS | QQYHRLPLS | Ctrl | 1.15 | 6/6 |

Extract of 4 entries:

CDR-L1,CDR-L2,CDR-L3,group,"log10 Kd (nM), mean",detected
KFSQSEAYESRTKNSVA,NASTRES,QQYHRLPLS,GP_HC,0.31,6/6
KSSQSVGYESDNTNSVA,WNSTRES,QQYHRLPLS,Ctrl,not detected,0/6
KVPQSELYESRNKNSVA,EASTRES,QQYHRLPLS,GP_Gen,0.00,6/6
KLSQSVLYEERMKNSVA,NASQRES,QQYHRLPLS,GP_Gen,0.21,6/6

A sequence measured in both rounds can read differently, since the two assays cover different ranges.
Nonspecific signal, from three strains lacking the peptide, appeared in 4% of pairings of all light chain designs, centred on 2.64 (5% of these signals below 1.59); values are not corrected for it.